Experimental findings from US20220354827A1 (priority 2019, published 2022) are described below.

In series [1] the test system is NMDA mediated elevation of cytosolic Ca2+ concentrations in iPSC from AD patients. In words: NMDA mediated elevation of cytosolic Ca2+ (Fura-2/AM). Particulars: NMDA 500 μM; SAD and FAD cells compared with CON.
The nature of series [2]: Mortality after chronic treatment. Particulars: for mortality after chronic treatment (Log-rank test): IN-DAN, SQ-DAN.

For N-methyl-d-aspartate, in series [1], the “integrated cytosolic Ca2+ (AUC)” value is given as “greater overall exposure”.

With `O=C1CN(/N=C/c2ccc(-c3ccc([N+](=O)[O-])cc3)o2)C(O)=N1` [dantrolene], the Mortality % entry in series [2] (5XFAD mice, intranasal, early treatment (In Dan E)) is reported as “(12.5%)”; in series [2] (5XFAD mice, intranasal, late treatment (In Dan L)), “(6.3%)”; in series [2] (5XFAD mice, subcutaneous, early treatment (Sub Dan E)) it was “(14.3%)”; in series [2] (5XFAD mice, subcutaneous, late treatment (Sub Dan L)), “(6.7%)”; in series [2] (WT mice, intranasal, early treatment (In Dan E)), “(11.1%)”; in series [2] (WT mice, intranasal, late treatment (In Dan L)), “(0%)”. In addition, the Mortality % result is given as “(23.5%)” in series [2] (WT mice, subcutaneous, early treatment (Sub Dan E)) and “(0%)” in series [2] (WT mice, subcutaneous, late treatment (Sub Dan L)). For the same molecule, the “mortality after chronic treatment (Log-rank test)” value in series [2] (5XFAD, ETG, LTG) was “No significant difference”; in series [2] (WT, ETG and LTG), “No significant differences”.
